Data as given in patent US20130324532A1 (published 2013).

Sequences of proteins named here, by UniProt entry; tags and fusion partners are left off. A line that says so, or that is headed by a name, gives the form on record, which may keep a tag or linker. Residues count along the entry.
UniProt Q05397, 411-686, species assumed: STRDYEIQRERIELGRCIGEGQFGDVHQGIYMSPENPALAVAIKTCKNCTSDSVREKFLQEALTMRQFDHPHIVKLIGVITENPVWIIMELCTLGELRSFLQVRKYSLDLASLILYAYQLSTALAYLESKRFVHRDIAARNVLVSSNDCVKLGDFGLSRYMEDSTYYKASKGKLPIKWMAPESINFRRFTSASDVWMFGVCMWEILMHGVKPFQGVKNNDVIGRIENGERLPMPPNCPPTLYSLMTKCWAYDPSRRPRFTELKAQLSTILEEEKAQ
UniProt Q05397, whole entry: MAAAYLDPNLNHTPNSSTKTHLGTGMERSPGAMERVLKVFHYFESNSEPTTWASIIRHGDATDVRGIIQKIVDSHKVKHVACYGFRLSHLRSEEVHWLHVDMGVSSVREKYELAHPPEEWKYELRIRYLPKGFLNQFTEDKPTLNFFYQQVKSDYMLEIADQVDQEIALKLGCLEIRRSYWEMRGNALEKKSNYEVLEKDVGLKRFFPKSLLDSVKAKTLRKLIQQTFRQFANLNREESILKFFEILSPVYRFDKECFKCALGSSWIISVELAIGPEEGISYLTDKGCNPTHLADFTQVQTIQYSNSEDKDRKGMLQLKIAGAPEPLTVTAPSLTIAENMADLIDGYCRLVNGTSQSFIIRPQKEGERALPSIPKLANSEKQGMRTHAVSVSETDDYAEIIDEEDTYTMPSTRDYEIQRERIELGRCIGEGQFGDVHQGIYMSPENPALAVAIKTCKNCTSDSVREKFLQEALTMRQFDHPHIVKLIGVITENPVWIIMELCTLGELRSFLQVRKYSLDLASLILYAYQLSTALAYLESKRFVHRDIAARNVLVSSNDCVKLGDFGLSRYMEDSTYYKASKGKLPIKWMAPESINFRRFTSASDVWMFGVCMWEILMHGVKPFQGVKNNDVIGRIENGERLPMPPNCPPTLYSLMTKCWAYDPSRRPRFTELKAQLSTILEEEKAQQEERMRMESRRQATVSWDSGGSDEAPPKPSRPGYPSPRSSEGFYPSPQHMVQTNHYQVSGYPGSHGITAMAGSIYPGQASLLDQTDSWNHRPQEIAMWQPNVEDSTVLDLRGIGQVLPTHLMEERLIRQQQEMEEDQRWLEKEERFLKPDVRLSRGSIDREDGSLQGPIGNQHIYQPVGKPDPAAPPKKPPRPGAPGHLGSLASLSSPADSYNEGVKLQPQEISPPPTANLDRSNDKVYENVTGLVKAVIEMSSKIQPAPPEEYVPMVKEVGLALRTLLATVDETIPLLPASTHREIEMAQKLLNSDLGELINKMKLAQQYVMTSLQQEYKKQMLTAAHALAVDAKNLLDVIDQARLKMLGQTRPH
UniProt P35916, other isoform, or with tags, fused parts or gaps: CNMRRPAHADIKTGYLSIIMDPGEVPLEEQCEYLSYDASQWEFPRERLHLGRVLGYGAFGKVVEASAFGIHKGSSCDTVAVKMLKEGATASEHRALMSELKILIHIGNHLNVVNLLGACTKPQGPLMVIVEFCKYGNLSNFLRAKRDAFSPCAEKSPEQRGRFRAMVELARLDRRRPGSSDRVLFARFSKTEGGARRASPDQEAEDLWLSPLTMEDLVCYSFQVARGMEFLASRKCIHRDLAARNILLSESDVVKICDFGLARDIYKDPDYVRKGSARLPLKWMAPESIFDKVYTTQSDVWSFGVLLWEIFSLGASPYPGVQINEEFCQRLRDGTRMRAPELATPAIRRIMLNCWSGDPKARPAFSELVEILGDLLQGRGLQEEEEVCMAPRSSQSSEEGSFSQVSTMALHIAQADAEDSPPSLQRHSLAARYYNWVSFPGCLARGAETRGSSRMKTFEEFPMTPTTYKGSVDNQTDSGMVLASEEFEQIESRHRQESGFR
UniProt P35916, 25-1363: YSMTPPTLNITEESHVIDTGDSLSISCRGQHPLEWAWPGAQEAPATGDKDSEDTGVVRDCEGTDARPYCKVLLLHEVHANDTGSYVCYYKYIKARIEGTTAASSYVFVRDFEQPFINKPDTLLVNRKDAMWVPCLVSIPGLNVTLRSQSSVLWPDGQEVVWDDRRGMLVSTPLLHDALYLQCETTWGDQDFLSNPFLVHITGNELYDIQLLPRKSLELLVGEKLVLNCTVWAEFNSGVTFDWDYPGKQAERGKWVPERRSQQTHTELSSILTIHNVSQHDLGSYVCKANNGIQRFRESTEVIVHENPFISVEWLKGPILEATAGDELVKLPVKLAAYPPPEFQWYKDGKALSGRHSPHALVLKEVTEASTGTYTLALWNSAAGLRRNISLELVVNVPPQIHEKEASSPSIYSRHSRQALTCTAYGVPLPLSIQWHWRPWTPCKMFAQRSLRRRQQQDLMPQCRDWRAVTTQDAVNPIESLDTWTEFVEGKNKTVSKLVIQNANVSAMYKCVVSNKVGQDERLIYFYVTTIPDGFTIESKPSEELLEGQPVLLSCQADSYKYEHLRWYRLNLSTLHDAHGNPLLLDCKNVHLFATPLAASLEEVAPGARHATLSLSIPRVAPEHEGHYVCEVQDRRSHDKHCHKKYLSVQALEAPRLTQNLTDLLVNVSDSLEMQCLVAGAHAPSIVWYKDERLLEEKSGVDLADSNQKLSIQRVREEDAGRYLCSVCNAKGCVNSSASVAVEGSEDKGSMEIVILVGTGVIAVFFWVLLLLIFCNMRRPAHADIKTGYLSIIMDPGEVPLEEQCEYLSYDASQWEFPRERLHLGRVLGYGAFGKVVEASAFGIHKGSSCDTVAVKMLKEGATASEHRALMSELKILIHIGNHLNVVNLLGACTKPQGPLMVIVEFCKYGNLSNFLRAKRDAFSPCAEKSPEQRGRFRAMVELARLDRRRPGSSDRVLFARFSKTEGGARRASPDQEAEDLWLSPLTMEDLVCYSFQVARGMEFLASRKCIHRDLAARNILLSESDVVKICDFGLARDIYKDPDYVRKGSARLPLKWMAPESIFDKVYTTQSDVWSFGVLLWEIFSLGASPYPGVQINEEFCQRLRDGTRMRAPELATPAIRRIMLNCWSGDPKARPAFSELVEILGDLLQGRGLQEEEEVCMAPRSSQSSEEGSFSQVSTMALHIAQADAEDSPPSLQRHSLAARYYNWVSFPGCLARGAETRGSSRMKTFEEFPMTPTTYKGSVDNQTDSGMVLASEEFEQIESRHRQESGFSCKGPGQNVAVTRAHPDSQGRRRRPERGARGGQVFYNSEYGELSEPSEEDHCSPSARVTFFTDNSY
UniProt P35916, with tags, fused parts or gaps DEL949-1002: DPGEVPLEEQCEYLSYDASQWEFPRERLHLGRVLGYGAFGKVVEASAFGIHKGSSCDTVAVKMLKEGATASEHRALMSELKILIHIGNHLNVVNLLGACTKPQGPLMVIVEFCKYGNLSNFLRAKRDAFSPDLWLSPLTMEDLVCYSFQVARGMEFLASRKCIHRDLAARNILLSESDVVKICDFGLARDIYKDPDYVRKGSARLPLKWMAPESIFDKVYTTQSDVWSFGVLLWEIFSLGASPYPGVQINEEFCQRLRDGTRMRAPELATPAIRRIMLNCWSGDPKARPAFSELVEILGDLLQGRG

Columns and labels:
MDA-231-LNA cells = assay: cells; conditions: 72 h
[1] = target: FAK enzyme (catalytic domain, amino acids 411-686) (Homo sapiens, UniProt Q05397); assay: biochemical
[2] = target: VEGFR3 cytoplasmic domain (Homo sapiens, UniProt P35916); assay: biochemical
[3] = target: N-terminally GST-fused purified FAK enzyme (Homo sapiens, UniProt Q05397); assay: biochemical
[4] = target: Phospho VEGFR3 (Flt4) in HMVEC-dLyAD cells (Homo sapiens, UniProt P35916); assay: Flt4 Phospho ELISA assay
[5] = target: VEGFR3 cytoplasmic domain (Homo sapiens, UniProt P35916, DEL949-1002); assay: biochemical

Row | SMILES | IC50 (MDA-231-LNA cells) [µM] | IC50 [1] [µM] | IC50 [2] [µM] | Kd [3] [µM] | IC50 [4] [µM] | IC50 [5] [µM]
1 | CCN1CCN(c2ccc(Nc3ncc(C(F)(F)F)c(CCc4ccccc4CC(N)=O)n3)cc2)CC1 [Compound 10, 2-(2-(2-(2-((4-(4-Ethylpiperazin-1-yl)phenyl)amino)-5-(trifluoromethyl)pyrimidin-4-yl)ethyl)phenyl)acetamide] | 1.43 | – | – | – | – | –
2 | CC(=O)N1CCN(c2ccc(Nc3ncc(C(F)(F)F)c(CCc4ccccc4CC(N)=O)n3)cc2)CC1 [Compound 13, 2-(2-(2-(2-((4-(4-Acetylpiperazin-1-yl)phenyl)amino)-5-(trifluoromethyl)pyrimidin-4-yl)ethyl)phenyl)acetamide] | > 1 | 0.0006 | 0.07 | 0.00047 | – | –
3 | CC(=O)N1CCC(c2ccc(Nc3ncc(C(F)(F)F)c(CCc4ccccc4CC(N)=O)n3)cc2)CC1 [Compound 23, 2-(2-(2-(2-((4-(1-Acetylpiperidin-4-yl)phenyl)amino)-5-(trifluoromethyl)pyrimidin-4-yl)ethyl)phenyl)acetamide] | – | 0.00039 | 0.012 | 0.0013 | – | –
4 | CN(C)C1CCN(c2ccc(Nc3ncc(C(F)(F)F)c(CCc4ccccc4CC(N)=O)n3)cc2)CC1 [Compound 24] | 1.7 | 0.00077 | 0.0039 | 0.00077 | 0.071 | –
5 | NC(=O)Cc1ccccc1CCc1nc(Nc2ccc(CN3CCNCC3)cc2)ncc1C(F)(F)F [Compound 25, 2-(2-(2-(2-((4-(piperazin-1-ylmethyl)phenyl)amino)-5-(trifluoromethyl)pyrimidin-4-yl)ethyl)phenyl)acetamide] | – | 0.003 | 0.014 | 0.0011 | 0.066 | –
6 | CN1CCC(c2ccc(Nc3ncc(C(F)(F)F)c(CCc4nccnc4CC(N)=O)n3)cc2)CC1 [Compound 27] | 2.81 | 0.0072 | 0.03 | 0.0166 | – | –
7 | CN1CCc2cc(Nc3ncc(C(F)(F)F)c(CCc4ccccc4CC(N)=O)n3)ccc2C1 [Compound 28] | – | – | 0.01 | – | – | –
8 | CN1CCC(c2ccc(Nc3ncc(C(F)(F)F)c(CCc4ncncc4CC(N)=O)n3)cc2)CC1 [Compound 30] | > 5 | 0.011 | 0.007 | 0.0057 | 0.658 | –
9 | CCN1CCC(c2ccc(Nc3ncc(C(F)(F)F)c(CCc4ccccc4CC(N)=O)n3)cc2)CC1 [Compound 31, 2-(2-(2-(2-((4-(1-Ethylpiperidin-4-yl)phenyl)amino)-5-(trifluoromethyl)pyrimidin-4-yl)ethyl)phenyl)acetamide] | – | 0.0036 | – | – | – | –
10 | NC(=O)Cc1cccnc1CCc1nc(Nc2ccc(C3CCNCC3)cc2)ncc1C(F)(F)F [Compound 32, 2-(2-(2-(2-((4-(Piperidin-4-yl)phenyl)amino)-5-(trifluoromethyl)pyrimidin-4-yl)ethyl)pyridin-3-yl)acetamide] | – | 0.0035 | – | 0.0025 | – | 0.0051
11 | NC(=O)Cc1ccccc1CCc1nc(Nc2ccc(C3CCNC3)cc2)ncc1C(F)(F)F (stereo not shown) [Compound 35, 2-(2-(2-(2-((4-(Pyrrolidin-3-yl)phenyl)amino)-5-(trifluoromethyl)pyrimidin-4-yl)ethyl)phenyl)acetamide] | – | 0.0077 | – | 0.0016 | – | 0.053
12 | CCN1CCC(c2ccc(Nc3ncc(C(F)(F)F)c(CCc4ncccc4CC(N)=O)n3)cc2)CC1 [Compound 38, 2-(2-(2-(2-((4-(1-Ethylpiperidin-4-yl)phenyl)amino)-5-(trifluoromethyl)pyrimidin-4-yl)ethyl)pyridin-3-yl)acetamide] | – | 0.023 | – | – | – | 0.023
13 | NC(=O)Cc1cccnc1CCc1nc(Nc2ccc(C3CCCNC3)cc2)ncc1C(F)(F)F (stereo not shown) [Compound 39, 2-(2-(2-(2-((4-(Piperidin-3-yl)phenyl)amino)-5-(trifluoromethyl)pyrimidin-4-yl)ethyl)pyridin-3-yl)acetamide] | – | 0.014 | – | – | – | 0.023
14 | CCN1CCCC(c2ccc(Nc3ncc(C(F)(F)F)c(CCc4ncccc4CC(N)=O)n3)cc2)C1 (stereo not shown) [Compound 40, 2-(2-(2-(2-((4-(1-Ethylpiperidin-3-yl)phenyl)amino)-5-(trifluoromethyl)pyrimidin-4-yl)ethyl)pyridin-3-yl)acetamide] | – | 0.051 | – | – | – | 0.046
